The experiment deals with 5-hydroxytryptamine receptor 4 (Cavia porcellus) (UniProt O70528). As to the kind of experiment: Displacement of [3H]GR113808 from 5HT4R in guinea pig striatal membranes at 1 uM. In kind it is cell membranes. The following applies: Striatum, Membrane. A digest of the protocol:
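Native 5-HT4R in male guinea pig striatal membranes (HEPES 50 mM pH 7.4); 600 µg membrane incubated in duplicate with [3H]GR 113808 at 0.1 nM final, 37 °C, 30 min; filtration on PEI-soaked GF/B filters, cold buffer washes.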
In general terms: Displacement assays read how much labelled ligand stays bound in the presence of the test substance.

By UniProt entry, the sequences of proteins in these tests, tags left out. Where a name states a change or a piece, a line headed by the entry shows the natural chain unless it says otherwise.
UniProt O70528: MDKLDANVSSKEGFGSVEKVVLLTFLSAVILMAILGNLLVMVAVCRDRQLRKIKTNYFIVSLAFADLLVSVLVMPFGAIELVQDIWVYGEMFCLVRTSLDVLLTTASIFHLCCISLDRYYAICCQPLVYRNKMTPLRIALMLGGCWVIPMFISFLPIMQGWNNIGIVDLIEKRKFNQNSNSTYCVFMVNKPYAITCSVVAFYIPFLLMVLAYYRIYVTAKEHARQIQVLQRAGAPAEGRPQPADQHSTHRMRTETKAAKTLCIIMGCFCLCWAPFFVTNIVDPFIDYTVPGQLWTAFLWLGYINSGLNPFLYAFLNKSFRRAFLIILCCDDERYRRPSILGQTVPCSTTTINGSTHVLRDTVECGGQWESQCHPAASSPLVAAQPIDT

Each structure is given as a SMILES string.

As a reminder, the inhibition is the share of the control response that was lost under treatment.

`CCCN1CCC(COc2nc3ccccc3c3ccccc23)CC1` registered an inhibition of 100%.

With `CCCN1CCC(COc2nc3ccc(C)cc3c3ccccc23)CC1`, the inhibition amounted to 88%.

The values are drawn from ChEMBL document CHEMBL2176996, “Synthesis and structure-affinity relationships of selective high-affinity 5-HT(4) receptor antagonists: application to the design of new potential single photon emission computed tomography tracers” (J Med Chem, 2012).
